Bioassay records as filed in PubChem.
Sa growth inh: S. aureus growth inhibition; S. aureus RN4220 growth, OD600, 20 h, 42 °C; stronger effect = lower value; relative growth, % (test concentration not listed); 0.53% of 170,000 active;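 active = relative growth at most 50% at the other temperature and 20+ points below 30 °C, or under 10% at both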
HCMV NEC inh: disrupts HCMV UL50-UL53 complex binding. 0.15% of 190,000 active. inhibition, % (test concentration not listed). HTRF UL50-UL53 interaction, normalized percent inhibition; in the data active = inhibition above about 27%, passing the limit was not always enough
GIV Gai3 FP: inhibitors of GIV peptide binding to Galpha-i3, primary screen, biochemical, fluorescence polarization, FITC-GIV GBA peptide, rat Galphai3 | Guanine nucleotide-binding protein G(i) subunit alpha-3 (Rattus norvegicus), P08753 | 90 min; hits give low values; scaled: aluminum fluoride 0%, vehicle 100% | percent of control (FP), % (test concentration not listed) | hit rate 0.42% among 210,000 | AID 1224905, 2016;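 active = replicate mean at 85% of control or lower, very high polarization wells dropped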;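 note: wells of about 15 µL received 100 nL stock; the first replicate is given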
GIV-Gai FP conf: GIV-Galpha-i3 inhibition, FP confirmation | 38% of 580 active | FITC-GIV peptide binding to Galphai3, fluorescence polarization; stronger effect = lower value | fluorescence polarization, mP at 100 µM | shares compounds with GIV Gai3 FP;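 active = inhibition score of 15 or more, meaning 100 minus mean polarization as percent of control over three replicates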
GIV Gai AS conf: GIV-Galpha-i3 inhibition, AlphaScreen confirmation; shares compounds with GIV Gai3 FP; AlphaScreen Galphai3-GIV binding, purified proteins, 90 min; stronger effect = lower value; AlphaScreen counts at 100 µM; 39% of 580 active;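 active = inhibition score at or above a set limit, where the score is 100 minus the three-replicate mean percent of control signal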
Numbers without * were called inactive; . = not tested or not shown. Hits are enriched below; roughly 0.7% of the tested compounds scored in any of these assays.

By UniProt entry, the sequences of proteins in these tests, tags left out.
Guanine nucleotide-binding protein G(i) subunit alpha-3 (Rattus norvegicus), P08753, UniProt P08753, whole entry, looked up: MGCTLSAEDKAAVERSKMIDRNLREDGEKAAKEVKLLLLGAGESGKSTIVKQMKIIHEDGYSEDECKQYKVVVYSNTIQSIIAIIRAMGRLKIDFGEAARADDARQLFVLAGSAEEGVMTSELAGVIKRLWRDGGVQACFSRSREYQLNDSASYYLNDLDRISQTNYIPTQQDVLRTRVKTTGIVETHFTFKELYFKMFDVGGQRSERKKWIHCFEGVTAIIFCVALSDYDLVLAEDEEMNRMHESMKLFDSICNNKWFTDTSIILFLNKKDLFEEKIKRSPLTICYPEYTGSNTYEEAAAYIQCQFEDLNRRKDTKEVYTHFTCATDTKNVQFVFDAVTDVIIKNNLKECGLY

1: COc1cccc(CNC(=O)C2CCCN2c2nnc(N3CCCCC3=O)s2)c1 (stereo not drawn)
2: Cc1[nH]nc2oc(=O)c(CC(=O)O)c(C)c12
3: Cc1[nH]nc2oc(=O)c(Cc3c(F)cccc3Cl)c(C)c12
4: CCOC(=O)c1ccc(NC(=O)Nc2cccc(OCc3cc(=O)n4ccc(C)cc4n3)c2)cc1
5: COc1ccc(C)cc1NC(=O)Nc1cccc(OCc2cc(=O)n3ccc(C)cc3n2)c1
6: Cc1nc2c(-c3ccccc3)c(C)nn2c(C)c1CC(=O)NCc1cccc(Cl)c1
7: CCN1C(=O)CCc2cc(NS(=O)(=O)c3ccc(Cl)cc3)ccc21
8: CC(C)c1ccc(S(=O)(=O)/N=C2/C=C(Sc3ncn[nH]3)C(=O)c3ccccc32)cc1
Assay by compound | 1 | 2 | 3 | 4 | 5 | 6 | 7 | 8
GIV Gai AS conf | 26734 | 27884 | . | 34616 | . | . | . | 3681*
GIV-Gai FP conf | 79 | 59.1* | . | 78.2 | . | . | . | 26.1*
GIV Gai3 FP | 87.3 | 84.1* | 99.9 | 84.7* | 92.6 | 105.8 | 101.9 | 13.4*
Sa growth inh | . | 86.5 | 113.4 | 80.1 | 86.0 | . | . | 1.2*
HCMV NEC inh | -11.9 | 64.8 | -7.7 | . | . | -26.6 | -24.4 | .

9: Cc1ccc(S(=O)(=O)/N=C2\C=C(Sc3ncn[nH]3)C(=O)c3ccccc32)cc1
10: Cc1ccc(S(=O)(=O)/N=C2/C=C(Sc3ncn[nH]3)C(=O)c3ccccc32)cc1
11: Cc1ccc(Nc2nc(Nc3ccc(C)cc3)nc(Sc3ncn[nH]3)n2)cc1
12: Cc1ccc(S(=O)(=O)Nc2ccc(O)c(Sc3ncn[nH]3)c2)cc1
13: CC(C)c1ccc(NC(=O)CSc2ncn[nH]2)cc1
14: Cc1ccc(S(=O)(=O)N2CN(c3ccccc3)c3nc4ccccc4nc32)cc1
15: CS(=O)(=O)Nc1cccc(C2=NN(C(=O)CCCC(=O)O)C(c3ccc(F)cc3)C2)c1 (stereo not drawn)
16: COC(=O)CC(c1ccc(Br)cc1)n1cccc1 (stereo not drawn)
Assay by compound | 9 | 10 | 11 | 12 | 13 | 14 | 15 | 16
GIV Gai AS conf | 4566* | 6564* | . | . | . | . | . | .
GIV-Gai FP conf | 54.3* | 15.5* | . | . | . | . | . | .
GIV Gai3 FP | 83.1* | 5.9* | . | 99.8 | . | . | 102.2 | .
Sa growth inh | 2.3 | 2.1* | 74.6 | 103.8 | 94.2 | 92.4 | . | .
HCMV NEC inh | 45.4 | 31.8 | -18.7 | -27.4 | -40.3 | -19.3 | -53.9 | 0.2

Molecules shown so far that contain fluorine (two):
3: Cc1[nH]nc2oc(=O)c(Cc3c(F)cccc3Cl)c(C)c12
15: CS(=O)(=O)Nc1cccc(C2=NN(C(=O)CCCC(=O)O)C(c3ccc(F)cc3)C2)c1 (stereo not drawn)
Assay by compound | 3 | 15
GIV Gai AS conf | . | .
GIV-Gai FP conf | . | .
GIV Gai3 FP | 99.9 | 102.2
Sa growth inh | 113.4 | .
HCMV NEC inh | -7.7 | -53.9

Continuation:
17: CC1CCN(c2nc3ncc4c(c3c(=O)[nH]2)CC(C)(C)CC4=O)CC1
18: CCN1CCN(CCCNC(=O)C2c3cc(OC)c(OC)cc3C(=O)N(C)C2c2cccnc2)CC1 (stereo not drawn)
19: CCN(CCN(C)C)c1ncc(NS(=O)(=O)CC)cc1C(=O)O
20: CCCCN(CC)c1ncc(NS(=O)(=O)CC)cc1C(=O)O
21: CCOC(=O)/C(C#N)=C\c1cc2ccc(OC)cc2[nH]c1=O
22: COc1cccc(C(=O)NCCc2cc3ccc(OC)cc3[nH]c2=O)c1
23: COc1ccc(F)cc1S(=O)(=O)Nc1ccc(-c2ccc(N3CCCC3)nn2)cc1
24: O=C(O)CC(C(=O)O)N1C(=O)/C(=C\c2ccco2)SC1=S (stereo not drawn)
Assay by compound | 17 | 18 | 19 | 20 | 21 | 22 | 23 | 24
GIV Gai AS conf | . | . | 21018* | . | 26623 | . | . | 3647*
GIV-Gai FP conf | . | . | 34.2* | . | 82.3 | . | . | 53.3*
GIV Gai3 FP | 148.0 | 101.4 | 70.8* | 109.9 | 56.4* | 107.1 | 104.5 | 85.9
Sa growth inh | . | 109.8 | . | . | 114.9 | 87.0 | . | 76.9
HCMV NEC inh | 9.6 | 1.3 | -24.4 | -38.9 | -58.6 | -19.0 | -45.3 | -19.7

25: O=C(O)C(Cc1ccccc1)N1C(=O)/C(=C\c2ccco2)SC1=S (stereo not drawn)
26: COC(=O)c1cc(C(=O)Nc2ccc(Cl)cc2)c(=O)[nH]c1C
27: COC(=O)c1cc(C(=O)Nc2ccc(C)cc2)c(=O)[nH]c1C
28: Cc1cccc(CNC(=O)c2oc3c(c2C)-c2nn(Cc4cccc(Cl)c4)cc2CC3)c1
29: CC(=O)Nc1ccc(NC(=O)c2oc3c(c2C)-c2nn(Cc4ccccc4Cl)cc2CC3)cc1
30: CCn1cc2c(n1)-c1c(oc(C(=O)Nc3ccc(Cl)cc3)c1C)CC2
31: CCn1cc2c(n1)-c1c(oc(C(=O)NCc3cccnc3)c1C)CC2
32: CCOCCCNC(=O)Cn1cc2c(n1)-c1c(oc(C(=O)N3CCCC3)c1C)CC2
33: COCCNC(=O)Cn1cc2c(n1)-c1c(oc(C(=O)N3CCCC3)c1C)CC2
34: COCC(C)NCc1ccc(SC)cc1 (stereo not drawn)
35: O=C(O)c1ccc2c(c1)C(=O)N(c1nc3nc4c(c(=O)n3[nH]1)CCC4)C2=O
Assay by compound | 25 | 26 | 27 | 28 | 29 | 30 | 31 | 32 | 33 | 34 | 35
GIV Gai AS conf | . | 29055 | . | . | . | 16212* | 10636* | . | 26569 | . | .
GIV-Gai FP conf | . | 80.6 | . | . | . | 54.3 | 52.7 | . | 65.5* | . | .
GIV Gai3 FP | 90.7 | 105.6 | 104.8 | 100.6 | 98.8 | 81.5* | 82.9* | 97.2 | 69.8* | 99.5 | 102.8
Sa growth inh | 62.1 | . | . | 105.5 | 113.2 | 75.3 | 92.6 | 111.6 | 106.0 | 96.4 | 107.6
HCMV NEC inh | -22.9 | -13.0 | 3.9 | 7.8 | 0.0 | . | . | . | . | -1.5 | -5.7
